Test results from patent US6525065B1, “Pharmaceutical compositions and methods for effecting dopamine release” (priority 1997, dated 2003).

Amino acid sequences for entries named in this document (tags omitted). Residues count along the entry.
UniProt P02708, 21-457: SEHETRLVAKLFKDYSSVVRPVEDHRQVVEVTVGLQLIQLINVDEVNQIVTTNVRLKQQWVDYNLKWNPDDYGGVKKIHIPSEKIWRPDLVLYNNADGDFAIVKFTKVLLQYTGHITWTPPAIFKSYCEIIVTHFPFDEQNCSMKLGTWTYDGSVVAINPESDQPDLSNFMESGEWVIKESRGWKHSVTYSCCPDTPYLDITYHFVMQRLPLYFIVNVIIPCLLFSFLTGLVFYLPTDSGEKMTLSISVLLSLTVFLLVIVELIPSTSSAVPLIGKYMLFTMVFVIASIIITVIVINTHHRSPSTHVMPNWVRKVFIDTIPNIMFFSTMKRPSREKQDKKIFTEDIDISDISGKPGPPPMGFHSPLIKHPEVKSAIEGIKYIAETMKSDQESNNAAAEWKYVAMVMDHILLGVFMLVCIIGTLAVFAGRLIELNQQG
UniProt P07510, 23-517: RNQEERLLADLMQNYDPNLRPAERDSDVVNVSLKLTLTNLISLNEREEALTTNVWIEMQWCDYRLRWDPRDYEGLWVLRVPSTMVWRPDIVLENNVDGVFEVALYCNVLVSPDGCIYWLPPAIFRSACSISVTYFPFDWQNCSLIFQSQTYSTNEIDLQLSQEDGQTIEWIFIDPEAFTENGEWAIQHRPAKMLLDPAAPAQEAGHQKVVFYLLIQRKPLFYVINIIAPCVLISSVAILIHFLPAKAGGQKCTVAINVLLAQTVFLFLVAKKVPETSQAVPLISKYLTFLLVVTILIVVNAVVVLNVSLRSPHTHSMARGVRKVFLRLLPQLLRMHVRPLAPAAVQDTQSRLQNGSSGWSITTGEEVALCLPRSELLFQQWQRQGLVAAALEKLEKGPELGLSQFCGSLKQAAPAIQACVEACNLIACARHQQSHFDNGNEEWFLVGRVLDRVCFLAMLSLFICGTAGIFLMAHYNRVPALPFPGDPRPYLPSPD
UniProt Q07001, 22-517: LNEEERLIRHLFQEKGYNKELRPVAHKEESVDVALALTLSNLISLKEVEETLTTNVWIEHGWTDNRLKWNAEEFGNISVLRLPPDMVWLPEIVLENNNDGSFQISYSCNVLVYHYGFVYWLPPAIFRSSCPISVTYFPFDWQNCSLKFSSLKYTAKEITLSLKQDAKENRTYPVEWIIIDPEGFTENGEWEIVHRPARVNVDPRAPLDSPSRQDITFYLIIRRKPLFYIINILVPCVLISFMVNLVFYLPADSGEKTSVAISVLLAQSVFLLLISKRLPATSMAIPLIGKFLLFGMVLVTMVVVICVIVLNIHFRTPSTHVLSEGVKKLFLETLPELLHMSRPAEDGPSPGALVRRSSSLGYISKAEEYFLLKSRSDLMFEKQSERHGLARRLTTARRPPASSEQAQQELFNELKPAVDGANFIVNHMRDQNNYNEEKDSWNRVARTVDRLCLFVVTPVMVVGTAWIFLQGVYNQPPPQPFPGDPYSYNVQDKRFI

Key:
[1] = tested on: dopamine release; assay: cells; format: cell-based; conditions: for amounts causing muscle effects and effects upon ganglia relative to those required to cause dopamine release: selectivity of dopamine release over muscle and ganglion effects
[2] = target: T1, muscle-type nicotinic acetylcholine receptors (Homo sapiens, UniProt P02708+P07510+Q07001); format: cell-based
T1 construct: endogenous in cells; host or cells: TE671/RD (own knowledge of the cited US 5,597,919)

`CC(C)Oc1cncc(C2CC3CCN2CC3)c1` (centres unmarked) [Sample No. 8, 5-(1-azabicyclo[2.2.2]oct-2-yl-3-(isopropyloxy)pyridinedihydrochloride] was tested, and the “Dopamine Release Ecmax” value [1] was 31%, the EC50 ([1]; read-out: Dopamine Release EC50) was 31 nM and the “amounts causing muscle effects and effects upon ganglia relative to those required to cause dopamine release” value [1] was “many times”. For the same compound, the “Muscle Effect Ecmax” value [2] was 115%.

`Brc1cncc(C2CC3CCN2CC3)c1` (racemic) [Sample No. 2] was tested, and the “amounts causing muscle effects and effects upon ganglia relative to those required to cause dopamine release” value [1] was “many times”.

Counter-ions that a name gives are not always drawn.
